# Assay outcomes from PubChem.
# NR1D1 modulator = modulators of human Rev-erb alpha DNA binding. P20393. Rev-erbα–FITC-DNA binding, fluorescence polarization, 90 min. activity, % at 10 µM. 0.79% of 370,000 active;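 active = activity above about 14%, limit read from the data; passing the limit was not always enough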
# INS-1E GSIS act = primary screen for activators of insulin secretion dependent on glucose, INS-1E cells, GLuc reporter luminescence; activation, % at 16.6 µM; INS-1E GLuc reporter insulin secretion, 2-3 h; 0.61% of 370,000 active;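 active = lowest replicate activation of at least 40%, so every replicate reaches that level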
# SMARCA2 activ = SMARCA2 function activation, primary screen | MG213 cells, MMTV-luciferase reporter, dexamethasone, overnight | AID 652017 | activation, % at 9.1 µM | 1% of 370,000 active; in the data active = activation above about 7.8%
# UUG fidelity = alters start codon recognition fidelity in yeast. S. cerevisiae UUG-firefly luciferase reporter, luminescence/redox ratio. 350,000 tested, 0.13% active. activity score, % at 18.7 µM. AID 602363;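 active means replicate mean at a twofold rise or more, about +100% in these data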;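 further: firefly luciferase made from a UUG start codon reports start codon fidelity; reporter light over untreated wells divided by growth signal over untreated wells; some hits fall short of that in this replicate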
# ERp5 block = blocks human ERp5 reductase activity on insulin; Q15084; ERp5 insulin aggregation, absorbance 650 nm, 90 min; inhibition, % at 9.99 µM; 0.05% of 350,000 active; AID 651711;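 active = mean replicate inhibition above about 25%, with every replicate also reaching it, limit read from the data, passing the limit was not always enough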
# PDI turbidity = inhibitors of human protein disulfide isomerase | inhibition, % at 10 µM | 0.052% of 350,000 active | AID 588391 | PDI insulin aggregation turbidity, A650, 90 min;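 active = mean inhibition across replicates of 30% or more, whatever share of single replicates reach that level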
# SMARCA2 conf = confirmation of SMARCA2 (BRM) function activators. shares compounds with SMARCA2 activ. 30% of 3,500 active. MG213 cells, MMTV-luciferase with dexamethasone, luminescence, overnight; MG213 cells expressing E1A, Rb sequestered; DMSO wells 0%, reference activator 100%. activation, % at 9.1 µM;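 active = activation above its plate's cutoff, the mean activation of tested wells plus 3 SD, cut at about 7.9% in these data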
# VP16 Luc act = counter-screen for SMARCA2 activators: GAL4-VP16 luciferase reporter activation; AID 686939; 41% of 3,500 active; shares compounds with SMARCA2 activ; HEK293 GAL4-VP16 pG5luc reporter, luciferase luminescence; scaled: DMSO wells 0%, SAHA wells 100%; activation, % at 9.1 µM;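 active = activation above the solvent-only control well mean plus 3 SD, averaged across control plates, cut at about 5.2% in these data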
# Numbers stand for hits; . = inactive; / = no result. Hits are enriched below; roughly 2.1% of the tested compounds scored in any of these assays.
SMILES,NR1D1 modulator,INS-1E GSIS act,SMARCA2 activ,UUG fidelity,ERp5 block,PDI turbidity,SMARCA2 conf,VP16 Luc act
C[C@H]1CN([C@@H](C)CO)C(=O)c2cc(NC(=O)CCC(F)(F)F)ccc2O[C@H]1CN(C)C(=O)Nc1ccc(C(F)(F)F)cc1,/,.,/,.,.,/,/,/
O=C(O)c1ccc(N/N=C/c2cc3ccccc3nc2Cl)cc1,.,.,13,/,.,.,.,12
O=[N+]([O-])c1ccccc1N/N=C/c1cc2ccccc2nc1Cl,.,.,8.2,.,/,.,11,5.3
CO[C@@H]1CN(C)C(=O)c2cc(NS(=O)(=O)c3ccc(Cl)cc3)ccc2OC[C@H](C)NC[C@H]1C,/,.,/,.,.,/,/,/
COc1ccc2c3c(n(C)c2c1)[C@H](CO)NCC31CCN(C(=O)c2ccccc2)CC1,/,.,/,/,/,/,/,/
Cc1ccc2nc(-c3ccc(NC(=O)CSCC(=O)O)cc3)sc2c1,.,.,16,.,.,.,.,20
Cc1ccc2nc(-c3ccc(NC(=S)NC4CC(C)(C)NC(C)(C)C4)cc3)sc2c1,.,.,13,.,.,.,.,16
O=C(O)CSCC(=O)Nc1ccc(-c2nc3ccccc3s2)cc1,.,.,.,.,.,.,/,/
CCCNC(=O)N[C@@H]1C=C[C@@H](CC(=O)NC2CCC2)O[C@@H]1CO,/,.,/,.,.,/,/,/
C[C@H]1CN([C@@H](C)CO)S(=O)(=O)c2ccc(-c3ccc(C(=O)N(C)C)cc3)cc2O[C@@H]1CN(C)Cc1ccccc1C(=O)O,/,.,/,.,.,/,/,/
O=C(NCc1ccc2c(c1)CCO2)Nc1ccccc1,.,.,8.7,/,.,.,.,5.2
O=C1CCc2cc(Br)ccc2O1,.,/,8.7,.,.,.,.,.
O=C1CCc2ccccc2O1,.,.,.,.,.,/,/,/
C[C@@H]1CN([C@@H](C)CO)C(=O)c2cccc(NS(=O)(=O)c3cccs3)c2O[C@@H]1CN(C)CC1CCCCC1,/,.,/,.,.,/,/,/
COc1ccc(N)c2c1C(=O)c1ccccc1C2=O,.,.,8.3,.,/,.,16,.
Nc1ccc(O)c2c1C(=O)c1ccccc1C2=O,.,/,.,.,.,/,/,/
O=C(C[C@@H]1C[C@H]2c3cc(NC(=O)C4CCC4)ccc3O[C@H]2[C@H](CO)O1)NCc1ccccc1F,/,.,/,.,.,/,/,/
CC1(C)COC(c2cc3c(cc2Br)OCO3)OC1,.,.,8.1,/,.,.,.,.
CN(C)/C=N/c1nc2ccc3c(c2s1)CCCC3,.,.,15,.,.,.,18,13
C=C1C(=O)[C@]23C[C@H]1CC[C@H]2[C@]1(C)[C@@H](O)CC[C@@](C)(C(=O)O)[C@H]1C[C@@H]3O,.,.,21,.,.,/,37,.
C=C1C(=O)[C@]23C[C@H]1CC[C@H]2[C@]1(C)[C@@H](OC(C)=O)CC[C@@](C)(C(=O)O)[C@H]1C[C@@H]3O,.,84,34,.,.,/,9.1,.
C=C1C(=O)[C@]23C[C@H]1CCC2[C@@]1(C)C(C[C@@H]3O)[C@](C)(C(=O)O)C[C@H](O)[C@@H]1O (stereo partly drawn),.,.,.,.,.,/,/,/
C=C1C(=O)C2=CC1CCC(=O)C1(C)CCC(OC(C)=O)C(C)(C)C1CC2O (stereo not drawn),.,.,.,/,.,.,/,/
COc1ccc(NC(=O)N(C)C[C@H]2OCCCC[C@H](C)Oc3ccc(NS(=O)(=O)c4cccs4)cc3C(=O)N([C@H](C)CO)C[C@@H]2C)cc1,/,.,/,.,.,/,/,/
O=C(C[C@@H]1C[C@H]2c3cc(NC(=O)C4CCOCC4)ccc3O[C@H]2[C@@H](CO)O1)NC1CCCCC1,/,.,/,.,.,/,/,/
SMILES,NR1D1 modulator,INS-1E GSIS act,SMARCA2 activ,UUG fidelity,ERp5 block,PDI turbidity,SMARCA2 conf,VP16 Luc act
Brc1ccc(Cn2c(-c3cncs3)nc3ccccc32)cc1,.,.,8.8,.,.,.,.,.
COc1ccc2c3c(n(C)c2c1)[C@H](CO)N(C(=O)CN1CCOCC1)CC31CCN(C(=O)CC2CC2)CC1,/,.,/,/,/,/,/,/
Cc1ccc(S(=O)(=O)N(C)C[C@@H]2Oc3ccc(NC(=O)Nc4ccc(F)cc4)cc3CC(=O)N([C@H](C)CO)C[C@H]2C)cc1,/,.,/,.,.,/,/,/
Cc1occc1C(=O)NNC(=O)Nc1ccc(F)cc1F,.,.,.,.,/,.,/,/
Cc1occc1C(=O)Nc1ccc(Br)cc1F,.,/,10,.,/,.,16,10.0
CCS(=O)(=O)Nc1ccc2c(c1)C(=O)N(C)[C@@H]1CC[C@H](CC(=O)NC)O[C@@H]1CO2,/,.,/,.,.,/,/,/
O=C(Cc1cccnc1)N1CC(=O)N2[C@H](CO)[C@H](c3ccc(C4=CCCCC4)cc3)[C@@H]2C1,/,.,/,/,.,/,/,/
CCOC(=O)c1ccc(NC(=S)N(CCN(C)C)C(C)c2ccncc2)cc1 (stereo not drawn),.,.,11,.,.,.,.,.
CCc1cccc(NC(=S)N(CCN(C)C)C(C)c2ccncc2)c1 (stereo not drawn),.,.,.,.,.,.,/,/
CC(C)NC(=O)N(C)C[C@@H]1Oc2c(NC(=O)C3CC3)cccc2C(=O)N([C@H](C)CO)C[C@H]1C,/,.,/,.,.,/,/,/
c1ccc2c(c1)cnc1ccccc12,.,.,.,.,.,.,/,/
c1ccc(-c2ncc3c(ccc4ccccc43)n2)cc1,.,.,9.1,.,/,.,.,5.1
O=C(N/N=C/c1ccccc1F)c1csc2c1CCCC2,.,.,12,.,.,.,8.6,10
O=C(N/N=C/c1cccc(F)c1)c1csc2c1CCCC2,.,.,.,.,/,.,/,/
Cc1cc(OCC(=O)NC(C)C)cc(C)c1Cl,.,/,11,.,/,.,.,.
O=C(O)c1c2c(nc3ccccc13)/C(=C/c1ccc(O)cc1)CC2,.,.,.,/,.,.,/,/
COc1cccc2c1CCc1c-2nc2ccccc2c1C(=O)O,.,.,11,/,.,.,8.2,5.9
CO[C@H]1CN(C)C(=O)c2cc(NC(=O)C3CCOCC3)ccc2OC[C@@H](C)N(Cc2nccs2)C[C@H]1C,/,.,/,.,.,/,/,/
COc1ccc(CCNC(=O)C(=O)N/N=C/c2cccs2)cc1OC,.,.,14,.,.,.,.,.
O=C(CNCc1cccc2ccccc12)Nc1ccccc1[N+](=O)[O-],.,.,9.7,/,.,.,.,.
COc1ccc(CN2CC3(CCN(Cc4ccccn4)CC3)c3c(n(C)c4cc(OC)ccc34)[C@@H]2CO)cc1,/,.,/,/,/,/,/,/
COc1ccccc1/C=N/NC(=O)C(=O)N1CCN(c2ccccc2OC)CC1,.,.,10,.,/,.,.,.
Cc1ccc(NC(=O)c2cc([N+](=O)[O-])ccc2N2CCOCC2)cc1C,.,/,8.1,.,.,.,.,.
